Measured values taken from US7326786B2, “Thiazolinone unsubstituted quinolines” (Hoffmann-La Roche Inc., priority 2004, dated 2008).

By UniProt entry, the sequences of proteins in these tests, tags left out.
UniProt P06493, whole entry: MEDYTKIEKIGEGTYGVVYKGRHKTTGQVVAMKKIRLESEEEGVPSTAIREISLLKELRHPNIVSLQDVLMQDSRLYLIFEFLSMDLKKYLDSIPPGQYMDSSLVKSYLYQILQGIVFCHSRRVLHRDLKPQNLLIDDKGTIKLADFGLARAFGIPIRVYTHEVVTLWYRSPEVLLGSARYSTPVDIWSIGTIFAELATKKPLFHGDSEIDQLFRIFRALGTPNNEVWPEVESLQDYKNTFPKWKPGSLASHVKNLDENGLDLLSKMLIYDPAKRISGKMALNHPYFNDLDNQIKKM
UniProt P14635, whole entry partner: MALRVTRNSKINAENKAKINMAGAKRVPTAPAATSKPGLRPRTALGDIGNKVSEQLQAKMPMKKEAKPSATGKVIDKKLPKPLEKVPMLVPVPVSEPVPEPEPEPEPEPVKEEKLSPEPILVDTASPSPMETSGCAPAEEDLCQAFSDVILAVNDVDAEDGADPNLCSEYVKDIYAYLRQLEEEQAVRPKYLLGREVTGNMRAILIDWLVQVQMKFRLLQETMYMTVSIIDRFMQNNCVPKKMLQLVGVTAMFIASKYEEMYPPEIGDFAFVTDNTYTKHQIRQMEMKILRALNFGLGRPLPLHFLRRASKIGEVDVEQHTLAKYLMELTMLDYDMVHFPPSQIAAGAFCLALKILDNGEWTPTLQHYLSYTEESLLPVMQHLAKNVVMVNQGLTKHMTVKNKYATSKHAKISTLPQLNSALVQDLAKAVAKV

Biological target: recombinant human CDK1/Cyclin B complex (Homo sapiens, UniProt P06493)
Assay: CDK1/Cyclin B kinase assay (FlashPlate or HTRF)
Settings: Rb protein substrate, Ki=IC50/(1+[S]/Km)
Procedure: To determine inhibition of CDK1 activity, either FlashPlate™ (NEN™-Life Science Products) assay or HTRF Homogeneous Time Resolved Fluorescence assay was performed. Both types of kinase assays were carried out using recombinant human CDK1/Cyclin B complex. GST-cyclinB (GST-cycB) and CDK1 cDNA clones in baculovirus vectors were provided by Dr. W. Harper at the Baylor College of Medicine, Houston, Tex. Proteins were co-expressed in High Five™ insect cells and the complex was purified on glutathione Sepharose resin (Pharmacia, Piscataway, N.J.) as previously described (Harper, J. W. et al. Cell 1993, 75, 805-816). […] Purified Rb fusion protein stocks were quantitated for protein concentration, aliquoted, and stored at −70° C.
For the FlashPlate kinase asasy, 96-well FlashPlates were coated with Rb protein at 10 μg/ml, using 100 μl per well. […] Plates were washed four times with the wash buffer, sealed, and counted on the TopCount scintillation counter (Packard Instrument Co., Downers Grove, Ill.]. The percent inhibition of Rb phosphorylation, which is a measure of the inhibition of CDK activity, was determined according to the following formula: […]
The Homogeneous Time Resolved Fluorescence (HTRF) kinase assay was carried out in 96-well polypropylene plates (BD Biosciences, Bedford, Mass.). […]

Ki: 798 nM
Structure (SMILES): O=C1N=C(NCCc2ccccn2)S/C1=C\c1ccc2ncccc2c1
